Results reported in patent EP4837910A1, “ISOXAZOLINE COMPOUND AND PREPARATION METHOD THEREFOR, HERBICIDAL COMPOSITION, AND USE” (dated 2026).

Legend:
Zea mays = experiment: Pre-emergence test, crop damage (greenhouse, sprayed immediately after sowing); settings: Dosage 240 g a.i./ha, after 4 weeks in greenhouse, fresh weight control rate
Text: Monocotyledonous and dicotyledonous weed seeds as well as major crop seeds were placed in plastic pots filled with soil and then covered with 0.5-2 cm of soil. The test compounds of the present invention were individually dissolved with acetone, then added with Tween® 80, diluted with certain amount of water to obtain solutions of certain concentrations, and sprayed immediately after sowing. After drug application, the experimental results on weeds were observed after 4 weeks of cultivation in a greenhouse. Table 3 Results of pre-emergence test on weeds

[1] = tested on: Monocotyledonous and dicotyledonous weed; experiment: Pre-emergence test on weeds (greenhouse, sprayed immediately after sowing); settings: Dosage 240 g a.i./ha, after 4 weeks in greenhouse, fresh weight control rate

SMILES | activity level of plant damage (growth control rate), Zea mays (Zea mays) | activity level of plant damage (growth control rate), Descurainia sophia [1] | activity level of plant damage (growth control rate), Lolium multiflorum [1] | activity level of plant damage (growth control rate), Digitaria sanguinalis [1] | activity level of plant damage (growth control rate), Setaria viridis [1]
C=C[C@]1(C(=O)N[C@@H](C)C(=O)NOC)CC(c2cc(F)cc(C(F)(F)F)c2)=NO1 | 2 (Level 2: growth control rate greater than or equal to 10% and less than 20%) | 9 | 9 | – | –
C=C[C@]1(C(=O)N[C@@H](C)C(=O)N(CSC)OC)CC(c2cc(F)cc(F)c2)=NO1 | 0 | – | 9 | 6 (Level 6: growth control rate greater than or equal to 70% and less than 80%) | –
C=C[C@]1(C(=O)N[C@@H](CC#N)C(=O)N(C)OC)CC(c2cc(F)cc(F)c2)=NO1 | 1 (Level 1: growth control rate less than 10%) | – | 9 | – | –
C=C[C@]1(C(=O)N[C@@H](Cc2ccc(O)cc2)C(=O)N(C)OC)CC(c2cc(F)cc(F)c2)=NO1 | 0 | – | 7 (Level 7: growth control rate greater than or equal to 80% and less than 90%) | – | –
C=C[C@]1(C(=O)N[C@@H](C)C(=O)NOCCCC(=O)OC)CC(c2cc(F)cc(F)c2)=NO1 | 0 | 9 | – | – | –
C=C[C@@]1(C(=O)N[C@@H](C)C(=O)N(CC)OC)CC(c2cc(F)cc(F)c2)=NO1 | 0 | 5 (Level 5: growth control rate greater than or equal to 50% and less than 70%) | – | – | 5 (Level 5: growth control rate greater than or equal to 50% and less than 70%)
C=CC1(C(=O)O[C@H](C)C(=O)N(C)OC)CC(c2cc(F)cc(F)c2)=NO1 (stereo partly shown) | 0 | – | 9 | – | 5 (Level 5: growth control rate greater than or equal to 50% and less than 70%)
C=C[C@]1(C(=O)N[C@@H](C)C(=O)N(C)OCCBr)CC(c2cc(F)cc(F)c2)=NO1 | 0 | 7 (Level 7: growth control rate greater than or equal to 80% and less than 90%) | 9 | – | –
C=C[C@]1(C(=O)N[C@@H](C)C(=O)NOCCC(=O)OC)CC(c2cc(F)cc(F)c2)=NO1 | 0 | 7 (Level 7: growth control rate greater than or equal to 80% and less than 90%) | 9 | – | –
C=C[C@]1(C(=O)N[C@@H](C)C(=O)N(C)OCCON=C(C)C)CC(c2cc(F)cc(F)c2)=NO1 | 0 | – | 9 | – | –
C=C[C@]1(C(=O)N[C@@H](CCC)C(=O)N(C)OC)CC(c2cc(F)cc(F)c2)=NO1 | 2 (Level 2: growth control rate greater than or equal to 10% and less than 20%) | – | 8 (Level 8: growth control rate greater than or equal to 90% and less than 100%) | 9 | 9
C=C[C@]1(C(=O)N[C@@H](C)C(=O)N(C)OCc2ccccc2)CC(c2cc(F)cc(F)c2)=NO1 | 1 (Level 1: growth control rate less than 10%) | 7 (Level 7: growth control rate greater than or equal to 80% and less than 90%) | 5 (Level 5: growth control rate greater than or equal to 50% and less than 70%) | – | –
C=C[C@]1(C(=O)N[C@@H](C)C(=O)NOCC(=O)OC)CC(c2cc(F)cc(F)c2)=NO1 | 0 | 9 | 9 | – | –
C=C[C@]1(C(=O)N[C@@H](C)C(=O)N(C)OC)CC(c2cc(Cl)cc(C(F)(F)F)c2)=NO1 | 1 (Level 1: growth control rate less than 10%) | – | 9 | 9 | 9
C=C[C@]1(C(=O)N[C@@H](C)C(=O)NOCC)CC(c2cc(F)cc(OC(F)(F)F)c2)=NO1 | 1 (Level 1: growth control rate less than 10%) | – | 9 | – | –
CON(C)C(=O)[C@H](C)NC(=O)C1(OC)CC(c2cc(F)cc(F)c2)=NO1 (stereo partly shown) | 0 | – | – | 8 (Level 8: growth control rate greater than or equal to 90% and less than 100%) | –
C=C(C)[C@]1(C(=O)N[C@@H](C)C(=O)N(C)OC)CC(c2cc(Br)cc(Br)c2)=NO1 | 0 | – | 9 | 9 | 9
CON(C)C(=O)[C@H](C)NC(=O)[C@@]1(C(F)(F)F)CC(c2cc(F)cc(F)c2)=NO1 | 2 (Level 2: growth control rate greater than or equal to 10% and less than 20%) | – | – | 8 (Level 8: growth control rate greater than or equal to 90% and less than 100%) | 8 (Level 8: growth control rate greater than or equal to 90% and less than 100%)
C=C[C@]1(C(=O)N[C@@H](C)C(=O)N(C)O)CC(c2cc(F)cc(F)c2)=NO1 | 1 (Level 1: growth control rate less than 10%) | 9 | 9 | 9 | 9
C=C[C@]1(C(=O)N[C@@H](C)C(=O)N(CC)OCC)CC(c2cc(F)cc(F)c2)=NO1 | 0 | 9 | 9 | 9 | 9
